Results published in PMC8812549 (Journal of medicinal chemistry, 2021).

Settings: mice, 1 mg/kg, course of the study

Cc1ccc([C@H]2C[C@H](N(Cc3ccc(Br)c(Cl)c3)C3CCNCC3)C2)cc1 [77b]
observed toxicity: no observed toxicity
